Several values for one entry are separate records, joined by “and”; a condition that tells them apart may be missing. Identical values can stand only once. This is a selection; strong and weak results do not stand in their true shares. Records with an inconclusive call do not appear. Activity calls are given as the source filed them. Unless noted, calls follow the shape of the dose curve; as a rule, active = well fitted curve in the direction sought with a large enough effect in the repeat runs; inconclusive = weak or mixed curves; inactive = no such curve, though single readings can be large; an effect the other way counts as inactive or inconclusive.
Columns and labels:
[1] = qHTS assay to test for compound auto fluorescence at 535 nm (green) in HEK293 cell free culture (AID 720682); conditions: cell-free medium, green autofluorescence 485/535 nm, stronger effect = higher value
How it was run: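 Green-channel intensity (Ex/Em 485/535 nm) was recorded from compound-treated wells containing only DMEM with 10% FBS. Fluorescein provided the equivalency standard.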

Sequences of proteins named here, by UniProt entry; tags and fusion partners are left off.
UniProt P04150, whole entry: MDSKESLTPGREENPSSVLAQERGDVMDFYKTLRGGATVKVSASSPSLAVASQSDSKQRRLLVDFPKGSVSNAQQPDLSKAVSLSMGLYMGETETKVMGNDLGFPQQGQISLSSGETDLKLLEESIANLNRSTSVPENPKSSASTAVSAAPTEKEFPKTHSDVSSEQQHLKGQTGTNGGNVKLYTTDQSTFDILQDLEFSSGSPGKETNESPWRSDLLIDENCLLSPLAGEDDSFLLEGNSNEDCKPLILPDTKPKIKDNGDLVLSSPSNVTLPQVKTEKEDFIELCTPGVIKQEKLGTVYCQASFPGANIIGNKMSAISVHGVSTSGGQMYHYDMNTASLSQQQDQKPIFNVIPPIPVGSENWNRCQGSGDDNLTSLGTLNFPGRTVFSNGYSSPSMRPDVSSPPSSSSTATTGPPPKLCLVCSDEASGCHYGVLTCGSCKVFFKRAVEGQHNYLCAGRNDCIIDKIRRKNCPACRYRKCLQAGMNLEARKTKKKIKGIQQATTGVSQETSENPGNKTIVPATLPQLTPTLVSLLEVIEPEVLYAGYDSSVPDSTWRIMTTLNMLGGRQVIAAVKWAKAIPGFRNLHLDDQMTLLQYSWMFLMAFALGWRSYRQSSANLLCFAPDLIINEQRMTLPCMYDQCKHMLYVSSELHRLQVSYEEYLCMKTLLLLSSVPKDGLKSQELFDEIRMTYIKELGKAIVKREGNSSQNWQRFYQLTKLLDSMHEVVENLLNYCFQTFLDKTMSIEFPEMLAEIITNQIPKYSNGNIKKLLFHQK

[2] = qHTS assay to test for compound auto fluorescence at 590 nm (red) in HEK293 cell free culture (AID 720683); conditions: cell-free medium autofluorescence, Ex540/Em590 red
How it was run: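 Tox21 10K library compounds were pinned into cell-free DMEM with 10% FBS and fluorescence was read at excitation 540 nm. Activity is expressed as Rose Bengal sodium equivalency.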

[3] = qHTS assay to test for compound auto fluorescence at 590 nm (red) in HepG2 cell free culture (AID 720684); conditions: cell-free medium autofluorescence, red 540/590 nm
How it was run: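 Measured in medium alone (MEM containing 10% FBS) following pintool addition of compound; emission at 590 nm with 540 nm excitation, referenced to Rose Bengal sodium.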

[4] = qHTS assay to test for compound auto fluorescence at 460 nm (blue) in HepG2 cell free culture (AID 720685); conditions: Cell-free culture medium, blue autofluorescence 405/460 nm
How it was run: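 Compound (23 nL) or DMSO pinned into cell-free MEM with 10% FBS; blue fluorescence read at 405/460 nm excitation/emission, expressed as auto-fluorescence equivalency to triamterene.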

[5] = qHTS assay to test for compound auto fluorescence at 535 nm (green) in HepG2 cell free culture (AID 720686); conditions: Cell-free medium, green autofluorescence 485/535 nm
[6] = qHTS assay for identifying genotoxic compounds that show differential cytotoxicity against isogenic chicken DT40 cell lines with known DNA damage response pathways - wild type cell line (AID 743012); conditions: DT40 wild type chicken cells viability, CellTiter-Glo, 40 h; also: nearly all actives have a fitted effect of over 60% in size
How it was run: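 First, wild type DT40 cells were plated at 300 per well and equilibrated about 0.5 h at 37 C/5% CO2. Next, compounds in DMSO were added and exposure lasted 40 h. Finally, CellTiter-Glo was added for 30 min at room temperature and luminescence recorded.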

[7] = qHTS assay for identifying genotoxic compounds that show differential cytotoxicity against isogenic chicken DT40 cell lines with known DNA damage response pathways - Rev3 mutant cell line (AID 743014); conditions: chicken DT40 Rev3-/- viability, CellTiter-Glo, 40 h; series mostly up to 68.4 µM; also: nearly all actives have a fitted effect of over 55% in size
[8] = biological target: Glucocorticoid receptor (Homo sapiens) (UniProt P04150); test: qHTS assay to identify small molecule agonists of the glucocorticoid receptor (GR) signaling pathway (AID 720691; active = well fitted activation curve with a large enough effect in the signal ratio in the repeat runs, not every such curve was filed as active; the % refers to the signal ratio); conditions: GR-bla HeLa, beta-lactamase reporter ratio, 18 h
[9] = biological target: Glucocorticoid receptor (Homo sapiens) (UniProt P04150); test: qHTS assay to identify small molecule antagonists of the glucocorticoid receptor (GR) signaling pathway (AID 720692; active = well fitted inhibition curve with a large enough effect in the signal ratio in the repeat runs, not every such curve was filed as active; the % refers to the signal ratio); conditions: GR-bla HeLa, beta-lactamase FRET ratio, dexamethasone-stimulated, 18 h
[10] = qHTS assay to identify small molecule antagonists of the glucocorticoid receptor (GR) signaling pathway - cell viability counter screen (AID 720693); conditions: GR-bla HeLa viability, CellTiter-Glo luminescence, 18 h, with 5 nM dexamethasone present; also: nearly all actives have a fitted effect of over 55% in size
% is scaled to controls: 0 for no effect and ±100 for the full control effect.

[NH4+].[O-][Cl+3]([O-])([O-])[O-]
inactive: activity change ([1]; at 91.3 µM (top of the series)) -0.0178% | activity change ([1]; at 95.7 µM (top of the series)) -0.0396% | fluorescence, % of fluorescent control ([2]; at 91.3 µM (top of the series)) -0.0111% | fluorescence, % of fluorescent control ([2]; at 95.7 µM (top of the series)) 0.0326% | fluorescence, % of Rose Bengal ([3]; at 91.3 µM (top of the series)) 0.0799% | fluorescence, % of Rose Bengal ([3]; at 95.7 µM (top of the series)) -0.0828% | fluorescence, % of fluorescent control ([4]; at 91.3 µM (top of the series)) 0.005% | fluorescence, % of fluorescent control ([4]; at 95.7 µM (top of the series)) -0.173% | fluorescence, % of fluorescein control ([5]; at 91.3 µM (top of the series)) -0.0085% | fluorescence, % of fluorescein control ([5]; at 95.7 µM (top of the series)) -0.0113% | activity change, negative = cytotoxicity ([6]; at 68.4 µM (top of the series)) 7.86% | activity change, negative = cytotoxicity ([6]; at 95 µM (top of the series)) 13.9% | Potency [7]

Cc1c([N+](=O)[O-])cccc1[N+](=O)[O-]
inactive: activity change ([1]; at 91.3 µM (top of the series)) -0.0513% and -0.0271% | fluorescence, % of fluorescent control ([2]; at 91.3 µM (top of the series)) -0.774% and 0.0055% | fluorescence, % of Rose Bengal ([3]; at 91.3 µM (top of the series)) -0.0613% and 0.164% | fluorescence, % of fluorescent control ([4]; at 91.3 µM (top of the series)) -0.208% and 0.001% | fluorescence, % of fluorescein control ([5]; at 91.3 µM (top of the series)) -0.114% and -0.0171% | activation ([8]; at 62.4 µM (top of the series)) -3.03% and 0.785% | activity change, negative = inhibition ([9]; at 58.5 µM (top of the series)) 2.18% and 0.481% | viability change, negative = cytotoxic ([10]; at 58.5 µM (top of the series)) 0.291% and 8.94% | activity change, negative = cytotoxicity ([6]; at 68.4 µM (top of the series)) 6.25% | Potency [7]

CC(C)OP(=O)(F)OC(C)C
inactive: activity change ([1]; at 46 µM (top of the series)) -0.0236% | fluorescence, % of fluorescent control ([2]; at 46 µM (top of the series)) 0.005% | fluorescence, % of Rose Bengal ([3]; at 46 µM (top of the series)) 0.0019% | fluorescence, % of fluorescent control ([4]; at 46 µM (top of the series)) 0.384% | fluorescence, % of fluorescein control ([5]; at 46 µM (top of the series)) 0.0445% | activation ([8]; at 62.4 µM (top of the series)) -0.591% | viability change, negative = cytotoxic ([10]; at 58.5 µM (top of the series)) 10.9% | activity change, negative = cytotoxicity ([6]; at 68.4 µM (top of the series)) 18.3% | Potency [7]

OCCSCCO
inactive: activity change ([1]; at 46 µM (top of the series)) -0.0167% | activity change ([1]; at 95.7 µM (top of the series)) 0.0085% | fluorescence, % of fluorescent control ([2]; at 46 µM (top of the series)) -0.7% | fluorescence, % of fluorescent control ([2]; at 95.7 µM (top of the series)) 0.0963% | fluorescence, % of Rose Bengal ([3]; at 46 µM (top of the series)) -0.0211% | fluorescence, % of Rose Bengal ([3]; at 95.7 µM (top of the series)) -0.2% | fluorescence, % of fluorescent control ([4]; at 46 µM (top of the series)) 0.0413% | fluorescence, % of fluorescent control ([4]; at 95.7 µM (top of the series)) -0.0077% | fluorescence, % of fluorescein control ([5]; at 46 µM (top of the series)) 0.0079% | fluorescence, % of fluorescein control ([5]; at 95.7 µM (top of the series)) 0.0071% | activation ([8]; at 62.4 µM (top of the series)) 3.75% | activation ([8]; at 79.2 µM (top of the series)) -0.505% | activity change, negative = inhibition ([9]; at 58.5 µM (top of the series)) 4.36% | activity change, negative = inhibition ([9]; at 78.9 µM (top of the series)) -4.36% | viability change, negative = cytotoxic ([10]; at 58.5 µM (top of the series)) -9.39% | viability change, negative = cytotoxic ([10]; at 78.9 µM (top of the series)) 13.3% | activity change, negative = cytotoxicity ([6]; at 68.4 µM (top of the series)) 6.87% | activity change, negative = cytotoxicity ([6]; at 95 µM (top of the series)) 1.55% | Potency [7]

Cc1ccc([N+](=O)[O-])c([N+](=O)[O-])c1
inactive: activity change ([1]; at 91.3 µM (top of the series)) -0.0043% | activity change ([1]; at 95.7 µM (top of the series)) 0.0227% | fluorescence, % of fluorescent control ([2]; at 91.3 µM (top of the series)) 0.266% | fluorescence, % of fluorescent control ([2]; at 95.7 µM (top of the series)) -0.403% | fluorescence, % of Rose Bengal ([3]; at 91.3 µM (top of the series)) 0.0039% | fluorescence, % of Rose Bengal ([3]; at 95.7 µM (top of the series)) 0.231% | fluorescence, % of fluorescent control ([4]; at 91.3 µM (top of the series)) 0.0167% | fluorescence, % of fluorescent control ([4]; at 95.7 µM (top of the series)) -0.157% | fluorescence, % of fluorescein control ([5]; at 91.3 µM (top of the series)) 0.0144% | fluorescence, % of fluorescein control ([5]; at 95.7 µM (top of the series)) -0.0052% | activation ([8]; at 62.4 µM (top of the series)) -9.97% | activation ([8]; at 79.2 µM (top of the series)) -3.79% | viability change, negative = cytotoxic ([10]; at 58.5 µM (top of the series)) 14.9% | viability change, negative = cytotoxic ([10]; at 78.9 µM (top of the series)) 3.34% | activity change, negative = cytotoxicity ([6]; at 68.4 µM (top of the series)) -8.6% | Potency [7]

CC(C)N(CCO)C(C)C
inactive: activity change ([1]; at 91.3 µM (top of the series)) 0.031% | fluorescence, % of fluorescent control ([2]; at 91.3 µM (top of the series)) 0.0027% | fluorescence, % of Rose Bengal ([3]; at 91.3 µM (top of the series)) 0.0198% | fluorescence, % of fluorescent control ([4]; at 91.3 µM (top of the series)) 0.25% | fluorescence, % of fluorescein control ([5]; at 91.3 µM (top of the series)) 0.0001% | viability change, negative = cytotoxic ([10]; at 58.5 µM (top of the series)) -8.28% | activity change, negative = cytotoxicity ([6]; at 68.4 µM (top of the series)) 3.38% | Potency [7]

CN(C)CCS
inactive: activity change ([1]; at 46 µM (top of the series)) -0.091% | fluorescence, % of fluorescent control ([2]; at 46 µM (top of the series)) -0.672% | fluorescence, % of Rose Bengal ([3]; at 46 µM (top of the series)) -0.0407% | fluorescence, % of fluorescent control ([4]; at 46 µM (top of the series)) -0.124% | fluorescence, % of fluorescein control ([5]; at 46 µM (top of the series)) 0.0035% | viability change, negative = cytotoxic ([10]; at 58.5 µM (top of the series)) -7.13% | activity change, negative = cytotoxicity ([6]; at 68.4 µM (top of the series)) -20% | Potency [7]

CCOP(=O)(CC)Oc1ccc([N+](=O)[O-])cc1 (stereo not given)
inactive: activity change ([1]; at 46 µM (top of the series)) -0.0882% | fluorescence, % of fluorescent control ([2]; at 46 µM (top of the series)) 0.148% | fluorescence, % of Rose Bengal ([3]; at 46 µM (top of the series)) -0.195% | fluorescence, % of fluorescent control ([4]; at 46 µM (top of the series)) 0.0199% | fluorescence, % of fluorescein control ([5]; at 46 µM (top of the series)) 0.0443% | viability change, negative = cytotoxic ([10]; at 58.5 µM (top of the series)) -9.67%

Cc1cccc([N+](=O)[O-])c1[N+](=O)[O-]
inactive: activity change ([1]; at 91.3 µM (top of the series)) -0.19% | fluorescence, % of fluorescent control ([2]; at 91.3 µM (top of the series)) -0.591% | fluorescence, % of Rose Bengal ([3]; at 91.3 µM (top of the series)) 0.361% | fluorescence, % of fluorescent control ([4]; at 91.3 µM (top of the series)) -0.185% | fluorescence, % of fluorescein control ([5]; at 91.3 µM (top of the series)) -0.157% | activation ([8]; at 62.4 µM (top of the series)) -9.56%

O=[N+]([O-])OCC(CO[N+](=O)[O-])(CO[N+](=O)[O-])CO[N+](=O)[O-]
inactive: activity change ([1]; at 46 µM (top of the series)) 0.009% | activity change ([1]; at 91.3 µM (top of the series)) 0.0811% | fluorescence, % of fluorescent control ([2]; at 46 µM (top of the series)) -0.0563% | fluorescence, % of fluorescent control ([2]; at 91.3 µM (top of the series)) -0.393% | fluorescence, % of Rose Bengal ([3]; at 46 µM (top of the series)) -0.425% | fluorescence, % of Rose Bengal ([3]; at 91.3 µM (top of the series)) -0.0457% | fluorescence, % of fluorescent control ([4]; at 46 µM (top of the series)) -0.0306% | fluorescence, % of fluorescent control ([4]; at 91.3 µM (top of the series)) -0.0398% | fluorescence, % of fluorescein control ([5]; at 46 µM (top of the series)) -0.0215% | fluorescence, % of fluorescein control ([5]; at 91.3 µM (top of the series)) 0.0172% | activation ([8]; at 62.4 µM (top of the series)) 0.271% and 0.409% | activity change, negative = inhibition ([9]; at 58.5 µM (top of the series)) -5.85% | viability change, negative = cytotoxic ([10]; at 58.5 µM (top of the series)) 4.61% and -1.53% | activity change, negative = cytotoxicity ([6]; at 68.4 µM (top of the series)) 4.41% | Potency [7]

— PubChem BioAssay (Tox21)
